## Ab-14 light chain CDR variants: yeast mating affinities

Source: Li et al. 2023 (doi:10.1038/s41467-023-39022-2), MIT Lincoln Laboratory and A-Alpha Bio; data file from the FLAb repository.

Antigen: PDVDLGDISGINAS, a 14-residue peptide of the SARS-CoV-2 spike HR2 region.

Parent scFv Ab-14: VH joined to VL by a 15-residue (Gly4Ser)3 linker. Changes lie in the light chain CDRs alone.
VH: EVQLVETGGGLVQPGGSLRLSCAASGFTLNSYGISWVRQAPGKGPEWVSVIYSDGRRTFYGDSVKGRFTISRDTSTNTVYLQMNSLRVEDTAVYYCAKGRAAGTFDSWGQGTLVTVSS
VL: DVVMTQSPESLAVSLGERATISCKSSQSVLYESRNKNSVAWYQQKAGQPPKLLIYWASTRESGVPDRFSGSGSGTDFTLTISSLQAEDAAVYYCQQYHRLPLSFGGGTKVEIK

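The parent was found by panning a naive human phage display library on the peptide. The variants were designed computationally from a first round of random CDR variants and then made and measured. Their group label is 14L_En_Gibbs (En: ensemble of fine-tuned language models; Gibbs: Gibbs sampling). Affinity was read by AlphaSeq, a pooled yeast mating assay with surface-displayed partners. Binding brings cells together so that they mate, and sequencing counts the barcode pairs among the diploids. Scores were corrected for input abundance and mapped to Kd with protein pairs of known affinity run in the same pool. Mating was done six times.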

Each variant is given by its three light chain CDRs, as the data file delimits them; those of the parent are KSSQSVLYESRNKNSVA, WASTRES, QQYHRLPLS.
Affinities are written as log10 Kd with Kd in nM; a lower number is a better binder.
"n.d." means that the variant was in the library but no mating with the target was seen in that replicate; the authors take this as a sign of poor binding, and no number exists.
A sequence measured in both rounds can read differently, since the two assays cover different ranges.
Of ten entries with the parent sequence, four were seen in most replicates (averages 0.34 to 2.37), three in one and three in none, so single entries are noisy.
In the paper, a design with two or fewer of six values counts as a poor binder.
Empty control strains, which show no peptide, gave a signal in 4% of pairings with all light chain designs; the median was 2.64 and 95% of these signals were weaker than 1.59. No background was subtracted. The control count says in how many pairings with the empty strains this scFv gave a signal, with their mean in brackets.

CDR-L1	CDR-L2	CDR-L3	replicates, log10 nM	control signals
SVTIEMLQQQEQYNSVA	GEQKTVD	QQYGRLPLS	0.86 1.06 0.26 0.34 0.70 0.61	0/18
MLSMMEQHLGDMMHNVA	DANVAKM	QDYFRLPLM	2.56 1.26 0.75 3.77 1.92 2.43	0/18
GVDHTMYSAQEAPNSIA	NAEQSNI	QQYARLPLS	0.25 0.17 -0.04 0.42 0.03 0.19	0/18
KISFWSYPGSLWHNNIA	GGSQRAE	QQYSRLPLN	1.12 1.32 1.42 0.68 1.02 1.24	3/18 (3.06)
HFLSLSLHQTGTLNSVA	DAEERQE	QQYMRLPLM	0.13 0.24 -0.25 -0.35 -0.16 0.00	0/18
HLHTVNYTEAIGTNSIA	DANLHVT	QQYFRLPIM	2.41 2.76 1.92 1.31 1.81 2.18	0/18
MFDQQLMTEWDKNNSVA	EENHLYN	QQYAQLPLI	1.90 2.00 1.73 1.82 1.65 1.94	1/18 (2.68)
VMQIQSDGMLNAKHNVA	GVDMRLE	QHYFRLPLL	1.44 0.92 1.59 1.59 0.78 1.55	3/18 (2.03)
HLQDWGIYHMENMDSIA	EREKLEM	QQYFRLPLS	0.71 0.24 0.24 0.34 0.12 0.63	0/18
KLTKYQYNWTSHYQAVA	ESNTRAT	QSYYRLPFS	n.d. n.d. n.d. n.d. n.d. n.d.	0/18
FLAYASDQTGLQKNAIA	QVNLKEN	QQYMRLPLA	0.54 1.79 1.33 1.77 1.74 2.03	0/18
MMTWGDDHTTGHQNAIA	HAHERAT	QQYALLPLS	1.29 1.11 0.71 1.00 1.04 0.91	2/18 (2.61)
HLSANMWMESSQWDAVA	QGDIAMN	QDYSRLPLS	2.22 2.28 2.01 n.d. 1.36 2.09	1/18 (2.10)
KLMGQGDHSIKHANSIA	NVDNVDM	QQYAHLPLS	1.37 1.36 1.07 0.83 1.31 0.88	0/18
KIQMFLGTLMEQINSIA	NSEVIVQ	QSYFRLPLS	n.d. n.d. n.d. n.d. n.d. n.d.	0/18
NVHALMNHSSDFMQSIA	DEECRDA	QQYERLPLS	1.87 2.52 2.25 3.43 2.34 3.08	1/18 (3.82)
NISTQIPEFEMWDNNIA	GATLRPT	QDYARLPLS	n.d. n.d. n.d. n.d. n.d. n.d.	0/18
QISLNGEDGEPYEDAVA	EGSIADA	QQYHRLPLS	1.75 2.57 n.d. 2.84 n.d. n.d.	0/18
MLPESMPQQIDNQNPVA	GAQHTAV	QQYGRLPLT	2.30 1.65 0.32 0.64 0.84 0.64	1/18 (2.04)
AFSESAFYGQRDENAIA	GADVRAK	QQYWRLPLT	0.49 0.35 0.30 0.08 0.10 0.43	2/18 (2.44)
KITSHEREGTADNSAMA	NADVSHD	QQYSRLPLF	1.53 1.43 1.03 1.72 0.88 1.48	1/18 (3.37)
FISLCQNSYEDANNSIA	DRNERAM	QQYGRLPLV	n.d. 1.99 1.54 n.d. 1.26 1.51	0/18
SLAYTQHFGQTGEKAIA	EVATRCQ	QQYFRLPLG	0.83 0.67 1.20 0.49 0.68 0.95	0/18
HMQNESQGDSRQLNNVA	ETTVVET	QQYATLPLT	1.85 2.88 1.28 2.38 1.36 1.70	0/18
RFTEHLLGLENKIYAIA	NATKTME	QQYFRLPFA	-0.12 -0.07 -0.56 -0.79 -0.26 -0.32	0/18
VMFMGLYWQNDEHYAIA	NVTMREK	QQYHRLPLQ	1.97 0.56 0.98 0.49 0.45 0.62	0/18
MFEEYQSEGGANNNAVA	DHECGIR	QQYYRLPLT	n.d. n.d. n.d. n.d. n.d. n.d.	1/18 (1.24)
HVAMEGAEEKNSYRNIA	DASMRLA	QQYVRLPLG	0.03 -0.06 0.09 -0.30 -0.13 0.13	0/18
KVVKAKSEGDRHAANVA	NANKATD	QQYYRLPLA	0.71 0.66 0.64 0.53 0.51 0.78	3/18 (2.67)
ILSDHAVNQYDEADNIA	DKTETSV	QQYARLPLS	1.29 1.23 1.27 2.52 1.50 2.22	1/18 (2.70)
QLQIEPNGYMGMRSNVA	DGVDVRM	QQYARLPLM	1.47 1.31 1.66 1.15 1.67 1.13	2/18 (2.50)
MLSMMHAMGYNKESSIA	DAEALNS	QQYNELPLS	n.d. n.d. n.d. n.d. 2.45 n.d.	0/18
HISPMQAYAYEAKNSVA	DNETKLN	QQYIRLPLT	0.63 0.48 0.57 0.03 0.36 0.29	0/18
KLAMYLEMWARTKHAVA	DANHKTS	QQYNRLPIS	0.04 0.82 -0.14 0.17 -0.20 0.09	0/18
QLNEYKHETEEKTQNIA	DMTIREP	QQYAHLPLA	0.81 0.80 0.75 0.64 0.90 0.85	1/18 (2.83)

Extract of 6 entries:

{"CDR-L1": "NVHALMNHSSDFMQSIA", "CDR-L2": "DEECRDA", "CDR-L3": "QQYERLPLS", "replicates, log10 nM": "1.87 2.52 2.25 3.43 2.34 3.08", "control signals": "1/18 (3.82)"}
{"CDR-L1": "MLSMMHAMGYNKESSIA", "CDR-L2": "DAEALNS", "CDR-L3": "QQYNELPLS", "replicates, log10 nM": "n.d. n.d. n.d. n.d. 2.45 n.d.", "control signals": "0/18"}
{"CDR-L1": "KISFWSYPGSLWHNNIA", "CDR-L2": "GGSQRAE", "CDR-L3": "QQYSRLPLN", "replicates, log10 nM": "1.12 1.32 1.42 0.68 1.02 1.24", "control signals": "3/18 (3.06)"}
{"CDR-L1": "QLQIEPNGYMGMRSNVA", "CDR-L2": "DGVDVRM", "CDR-L3": "QQYARLPLM", "replicates, log10 nM": "1.47 1.31 1.66 1.15 1.67 1.13", "control signals": "2/18 (2.50)"}
{"CDR-L1": "KIQMFLGTLMEQINSIA", "CDR-L2": "NSEVIVQ", "CDR-L3": "QSYFRLPLS", "replicates, log10 nM": "n.d. n.d. n.d. n.d. n.d. n.d.", "control signals": "0/18"}
{"CDR-L1": "MFEEYQSEGGANNNAVA", "CDR-L2": "DHECGIR", "CDR-L3": "QQYYRLPLT", "replicates, log10 nM": "n.d. n.d. n.d. n.d. n.d. n.d.", "control signals": "1/18 (1.24)"}